According to ChEMBL document CHEMBL1143470, “Synthesis and anticonvulsant activity of 7-alkoxyl-4,5-dihydro-[1,2,4]triazolo[4,3-a]quinolines” (Bioorg Med Chem Lett, 2005):

Species: Mus musculus
Assay: Protective index (TD50/ED50) produced by compound in mouse after MES test

`NC(=O)N1c2ccccc2C=Cc2ccccc21` [CARBAMAZEPINE] showed a PI of 8.1.
